Results from patent publication US20170007615A1, “Antibacterial Compounds” (priority 2014, published 2017).

Test system: E. coli (NDM-1; CTX-M15)
Assay: Septicaemia infection model, survival

CCNC(=O)Nc1nc2cc(-c3cnc([C@@H](C)OP(=O)(O)O)nc3)cc(-c3ccccn3)c2s1 [Example 152 of WO2013/138860, [(1R)-1-[5-[2-(ethylcarbamoylamino)-7-(2-pyridyl)-1,3-benzothiazol-5-yl]pyrimidin-2-yl]ethyl] dihydrogen phosphate]
mice survived at the end of 5 days (one dose (1 hour post infection): 100 mg/kg IV plus PMBN 50 mg/kg SC): 20%
mice survived at the end of 5 days (two doses (1 and 3 hours post infection): 100 mg/kg IV plus PMBN 50 mg/kg SC): 80%
